Columns and labels:
cardiomyocytes = assay: Myocardiocyte apoptosis experiment, TUNEL assay after 0.03% H2O2; assay type: cell-based, Wistar rat
Method: An 8 weeks old Wistar rat was injected with ketamine and pentobarbital to quickly kill the mouse, and its heart was quickly separated from the mouse. An aorta was used to perfuse with a Ca free Krebs-Henseleit buffer (KHB) solution which was pre-heated to a temperature of about 34° C. to about 37° C. Thereafter, the KHB solution was switched to Hank's balanced salt solution (HBSS:GIBCO, Grand Island, N.Y.) containing 0.15% class II collagenase (Cooper Biomedical, Malvern, Pa.) and then was used to perfuse the aorta for about 30 to about 40 minutes. Thereafter, the product obtained therefrom was washed twice with a cell culture medium (Dulbecco's modified Eagle's medium, DMEM). Ventricles and atria were separated each other and only ventricular tissues were finely chopped and then stirred thoroughly for 5 minutes in a shaker filled with culture medium (DMEM) containing class II collagenase that was pre-heated to a temperature of about 34° C. to about 37° C. Connective tissues that were not dissolved were filtered and a collagenase-containing solution was washed twice with the culture medium (DMEM). The product obtained therefrom was softly centrifuged at a speed of 10 g for 2 minutes, a supernatant obtained therefrom was separated and removed, and cell components were washed three times with a culture medium (DMEM) solution containing 1% fetal bovine serum (FBS; Sigma Chemical, St. Louis, Mo.). Thereafter, the cells obtained therefrom were stabilized in a culture medium, 10% FBS, 10 mM N-2-hydroxyethylpiperazine-N′-2-ethanesulfonic acid (HEPES, GIBCO Laboratories, Grand Island, N.Y.), 2 mM L-glutamine, and penicilin-stereptomycin (100 IU/mL, GIBCO) for 60 minutes. Thereafter, the cells were divided into wells in a 6-well plate at a density of 20×10^3 cells/cm^2 and then bromodeoxyuridine (BrdU, 10 uM, Sigma-Aldrich) was added to the culture medium over 3 days to prevent the proliferation of fibroblasts and progenitor cells (Lokuta et al, 1994; Miragoli et al., 2006).
The cells were cultured in an incubator under conditions of […], 5% CO2, and a temperature of 37° C. for the next experiment.
Cultured cells were divided into a control group and an experimental group for an MKX-2 treatment, and culture media of both groups were replaced with culture media free of FBS before the MKX-2 treatment. The treatment times were 0 hour, 12 hours, and 24 hours and concentrations of MKX-2 were 0.1 ng/μl and 0.01 ng/μl for each of the control group and the experimental group. To induce apoptosis in both the control group and the experimental group, 0.03% H2O2 was added to both groups 30 minutes before the MKX-2 treatment.
A cover glass was placed in the 6-well plate and cells cultured thereon were washed with PBS, which were fixed with 100% ethanol for 5 seconds at room temperature and then washed again with PBS. A freshly prepared permeabilization solution (0.1% Triton X-100+0.1% sodium citrate) was added to the wells and then treated for 10 minutes at a temperature of 37° C. in an incubator. Thereafter, cell cultures were washed twice with PBS for 5 minutes, a mixture solution of label solution and enzyme solution in an in situ cell death detection kit (Roche, Germany) was dropped in an amount of 30 μl on each cover glass, which was slightly covered with a parafilm thereafter. In an incubator at a temperature of 37° C., the cell cultures were reacted for 1 hour, washed twice with PBS for 5 minutes, and then treated with DAPI (Sigma) for 10 minutes at room temperature. After washing the cell cultures with PBS, a fluorescence microscope was used to observe the cell cultures and randomly select 10 locations, count the numbers of DAPI dyed cells and TUNEL positive cells at those 10 locations, and calculate a ratio of the DAPI dyed cells to the TUNEL positive cells. […]

HIT-T15 β-cells = assay: Cell survival of HIT-T15 β-cells pre-treated with MKX-2 and then treated with H2O2, MTT assay; assay type: cell-based, hamster
Method: HIT-T15 cells (75 to 77 passages), which are from an insulin secretion cell line derived from a hamster, and INS-1 cells (18 to 20 passages), which are from an insulin secretion cell line derived from a rat, were used. A culture medium used for culturing HIT-T15 cells was 10% FBS, 100 units/ml of penicillin, and 100 µg/ml of streptomycin added to RPMI-1640. The culture medium used for culturing INS-1 cells was 10% FBS and 1 mM pyruvate, 10 mM HEPES, 50 mM 2-mercaptoethanol, 100 units/ml penicillin, 100 µg/ml of streptomycin mixed in RPMI-1640. Two β-cell lines were cultured in conditions in which 95% humidity was maintained at a temperature of 37° C. and included 5% CO2. When cell confluence reached about 70% to about 80%, the cells were washed with PBS and then treated with 0.05% trypsin-EDTA to subculture the cells.
β-cells were divided into wells in a 24-well plate at a concentration of 1×10^5 cells/well and the β-cells were cultured for 24 hours such that a cell confluence reached about 70% to about 80%. After 24 hours, a pre-existing medium was removed and then replaced with RPMI-1640 including 0.5% FBS, cultured for 6 hours, and then the β-cells were inhibited from proliferation and differentiation. MKX-2 was dissolved in DMSO and then was used to pre-treat the β-cells at concentrations of 0 ng/ml, 0.12 ng/ml, 1.2 ng/ml, 12 ng/ml, 60 ng/ml, and 120 ng/ml, 1 hour prior to a H2O2 treatment. A control group was treated with DMSO at 0.001% to be compared to the treatment group. 1 hour after an MKX-2 treatment, a H2O2 treatment was performed for about 2 hours or about 4 hours. […] An absorbance value was quantitatively analyzed to calculate a cell growth inhibition rate
As described above, HIT-T15 and INS-1 cells, which are β-cells of islets of Langerhans, were seeded at a density of 1×10^5 cells/well for each well in a 24-well plate, which were then stabilized, and a preexisting medium was carefully removed therefrom on the day of the experiment, including even a miniscule amount of medium that remained after the removal. Thereafter, RPMI-1640 medium including 0.5% FBS was used to culture the β-cells for 6 hours and stop proliferation and differentiation of the β-cells. An MKX-2 treatment group and a control group only including the same amount of DMSO, which was used to dissolve MKX-2, were prepared. Thereafter, the MKX-2 treatment group was treated with in amounts of 0 ng/ml, 0.12 ng/ml, 1.2 ng/ml, 12 ng/ml, 60 ng/ml, and 120 ng/ml and then the β-cells were treated with H2O2 (100 M) for about 2 hours to about 4 hours to put the β-cells under stress, and then an MTT assay was used to compare cell survival rates.

CC[C@H](C)[C@H](N)C(=O)N[C@@H](CO)C(=O)NCC(=O)N[C@@H](CC(C)C)C(=O)N[C@@H](CCCNC(=N)N)C(=O)N[C@@H](CO)C(=O)N[C@@H](CC(C)C)C(=O)N[C@H](C(=O)N[C@H](C(=O)N[C@@H](CC(C)C)C(=O)N[C@@H](CC(C)C)C(=O)N[C@@H](CCCNC(=N)N)C(=O)N[C@@H](C)C(=O)N[C@@H](CC(C)C)C(=O)NCC(=O)N[C@@H](C)C(=O)N[C@@H](CCC(N)=O)C(=O)N[C@@H](CCCCN)C(=O)N[C@@H](CCC(=O)O)C(=O)N[C@@H](CC(C)C)C(=O)N[C@@H](CCSC)C(=O)O)[C@@H](C)O)[C@@H](C)O [MKX-2]
numbers of TUNEL positive cells/numbers of DAPI dyed cells (cardiomyocytes; MKX-2 0.01 ng/uL, 0 hour): 10.12 ± 2.03%
numbers of TUNEL positive cells/numbers of DAPI dyed cells (cardiomyocytes; MKX-2 0.01 ng/uL, 12 hours): 35.82 ± 3.95
numbers of TUNEL positive cells/numbers of DAPI dyed cells (cardiomyocytes; MKX-2 0.01 ng/uL, 24 hours): 44.16 ± 3.34%
numbers of TUNEL positive cells/numbers of DAPI dyed cells (cardiomyocytes; MKX-2 0.1 ng/uL, 0 hour): 5.38 ± 2.36%
numbers of TUNEL positive cells/numbers of DAPI dyed cells (cardiomyocytes; MKX-2 0.1 ng/uL, 12 hours): 44.35 ± 3.91%
numbers of TUNEL positive cells/numbers of DAPI dyed cells (cardiomyocytes; MKX-2 0.1 ng/uL, 24 hours): 47.97 ± 2.85%
cell survival rate compared to non-MKX-2 treatment group (HIT-T15 β-cells; 0.12 ng/ml and 1.2 ng/ml, H2O2 treatment for 2 hours or 4 hours): did not show a statistically significant difference
cell survival rate (HIT-T15 β-cells; 12 ng/ml, H2O2 treatment for 2 hours): 78.5%+0.92
cell survival rate (HIT-T15 β-cells; 12 ng/ml, H2O2 treatment for 4 hours): 59.57%+2.09
cell survival rate (HIT-T15 β-cells; 60 ng/ml, H2O2 treatment for 2 hours): 92.3%+5.24
cell survival rate (HIT-T15 β-cells; 60 ng/ml, H2O2 treatment for 4 hours): 67.19%+1.05
cell survival rate (HIT-T15 β-cells; 120 ng/ml, H2O2 treatment for 2 hours): 104.1%+2.87
cell survival rate (HIT-T15 β-cells; 120 ng/ml, H2O2 treatment for 4 hours): 84.73%+4.82
